The series is described as follows: Solubility of Type 4 ketone peroxides in different solvents (Table I). The note with it: at 20° C.

Here are results for one molecule from patent publication US20040248990A1, “Ketone peroxide compositions” (priority 2002, published 2004).

Where only a bound is given, the exact number is not on record here.

`CC(C)CCC(C)(OO)OO` had a Solubility in isodecane (apolar isododecane) above 45 g/100 g. This molecule also yielded a Solubility in dimethyl-phthalate (polar dimethylphthalate) above 30 g/100 g.
